Values quoted from earlier work in patent US6368613B1, “Use of fluorocarbons for diagnosis and treatment of articular disorders” (Alliance Pharmaceutical Corp., priority 1996, dated 2002).

Conditions: octanol/water partition coefficient

Structure (SMILES)	Log Po/w	Po/w
CN/C(=N/CCSCc1nc[nH]c1C)NC#N [C-cimetidine, cimetidine]	0.4	2.51
CC(=O)[C@H]1CC[C@H]2[C@@H]3CCC4=CC(=O)CC[C@]4(C)[C@H]3CC[C@]12C [C-progesterone, progesterone]	3.9	–
